Measurements taken from paper PMC8740163, “Voltage-Gated Sodium Channel Modulation by a New Spider Toxin Ssp1a Isolated From an Australian Theraphosid” (Frontiers in Pharmacology, 2021).

Chains of the proteins cited; added tags and fusions are not shown.
UniProt Q9NY46, whole entry: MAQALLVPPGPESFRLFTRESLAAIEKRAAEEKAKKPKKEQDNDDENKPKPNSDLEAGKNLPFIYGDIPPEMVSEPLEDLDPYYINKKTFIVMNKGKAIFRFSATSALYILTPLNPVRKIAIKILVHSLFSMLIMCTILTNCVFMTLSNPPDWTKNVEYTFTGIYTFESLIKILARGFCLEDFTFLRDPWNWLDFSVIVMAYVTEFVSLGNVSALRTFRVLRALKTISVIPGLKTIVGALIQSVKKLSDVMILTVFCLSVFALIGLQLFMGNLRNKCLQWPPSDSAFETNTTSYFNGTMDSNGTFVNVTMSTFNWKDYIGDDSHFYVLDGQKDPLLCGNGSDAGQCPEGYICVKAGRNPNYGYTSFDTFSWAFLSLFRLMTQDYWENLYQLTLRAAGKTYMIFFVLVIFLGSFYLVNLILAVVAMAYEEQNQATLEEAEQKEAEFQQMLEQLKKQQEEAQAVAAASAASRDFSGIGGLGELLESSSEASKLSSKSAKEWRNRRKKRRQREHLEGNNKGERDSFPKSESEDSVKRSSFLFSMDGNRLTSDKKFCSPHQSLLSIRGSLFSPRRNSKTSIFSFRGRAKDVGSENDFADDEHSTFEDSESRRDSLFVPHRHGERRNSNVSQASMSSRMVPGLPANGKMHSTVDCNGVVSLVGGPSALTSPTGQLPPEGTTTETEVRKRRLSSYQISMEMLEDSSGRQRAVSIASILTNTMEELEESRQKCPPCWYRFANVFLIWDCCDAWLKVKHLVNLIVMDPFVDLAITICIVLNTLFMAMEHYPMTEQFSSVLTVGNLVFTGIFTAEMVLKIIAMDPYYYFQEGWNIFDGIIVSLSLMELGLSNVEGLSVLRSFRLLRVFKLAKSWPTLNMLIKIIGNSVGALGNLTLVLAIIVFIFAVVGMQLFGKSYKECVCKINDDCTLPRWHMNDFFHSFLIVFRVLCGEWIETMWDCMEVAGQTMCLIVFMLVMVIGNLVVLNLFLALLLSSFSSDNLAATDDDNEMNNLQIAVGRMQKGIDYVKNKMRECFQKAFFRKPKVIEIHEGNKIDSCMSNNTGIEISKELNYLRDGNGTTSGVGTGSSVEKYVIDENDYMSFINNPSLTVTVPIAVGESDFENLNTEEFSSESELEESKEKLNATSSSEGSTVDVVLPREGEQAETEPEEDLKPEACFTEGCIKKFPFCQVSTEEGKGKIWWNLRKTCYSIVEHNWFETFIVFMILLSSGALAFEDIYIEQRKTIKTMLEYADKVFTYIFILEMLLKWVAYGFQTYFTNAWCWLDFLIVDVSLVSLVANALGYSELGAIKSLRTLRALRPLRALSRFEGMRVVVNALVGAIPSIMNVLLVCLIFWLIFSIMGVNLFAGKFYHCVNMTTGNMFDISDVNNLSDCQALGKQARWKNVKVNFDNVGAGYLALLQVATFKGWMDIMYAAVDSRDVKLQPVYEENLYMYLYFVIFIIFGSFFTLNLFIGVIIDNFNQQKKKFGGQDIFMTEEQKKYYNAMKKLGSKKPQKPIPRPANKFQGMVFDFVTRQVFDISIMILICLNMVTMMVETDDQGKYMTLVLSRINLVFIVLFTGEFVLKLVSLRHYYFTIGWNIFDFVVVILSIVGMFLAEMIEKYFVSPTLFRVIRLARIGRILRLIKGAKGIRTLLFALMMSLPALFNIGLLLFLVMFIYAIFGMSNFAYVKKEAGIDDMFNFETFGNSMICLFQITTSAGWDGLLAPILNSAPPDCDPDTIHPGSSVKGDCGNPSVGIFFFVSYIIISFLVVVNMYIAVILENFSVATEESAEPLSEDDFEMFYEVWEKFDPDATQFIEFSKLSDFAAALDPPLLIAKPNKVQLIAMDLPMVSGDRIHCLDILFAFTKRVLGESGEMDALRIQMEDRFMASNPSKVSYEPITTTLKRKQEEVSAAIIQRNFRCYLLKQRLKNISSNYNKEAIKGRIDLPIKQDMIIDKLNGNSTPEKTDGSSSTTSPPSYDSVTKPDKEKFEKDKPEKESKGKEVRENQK
UniProt Q15858, whole entry: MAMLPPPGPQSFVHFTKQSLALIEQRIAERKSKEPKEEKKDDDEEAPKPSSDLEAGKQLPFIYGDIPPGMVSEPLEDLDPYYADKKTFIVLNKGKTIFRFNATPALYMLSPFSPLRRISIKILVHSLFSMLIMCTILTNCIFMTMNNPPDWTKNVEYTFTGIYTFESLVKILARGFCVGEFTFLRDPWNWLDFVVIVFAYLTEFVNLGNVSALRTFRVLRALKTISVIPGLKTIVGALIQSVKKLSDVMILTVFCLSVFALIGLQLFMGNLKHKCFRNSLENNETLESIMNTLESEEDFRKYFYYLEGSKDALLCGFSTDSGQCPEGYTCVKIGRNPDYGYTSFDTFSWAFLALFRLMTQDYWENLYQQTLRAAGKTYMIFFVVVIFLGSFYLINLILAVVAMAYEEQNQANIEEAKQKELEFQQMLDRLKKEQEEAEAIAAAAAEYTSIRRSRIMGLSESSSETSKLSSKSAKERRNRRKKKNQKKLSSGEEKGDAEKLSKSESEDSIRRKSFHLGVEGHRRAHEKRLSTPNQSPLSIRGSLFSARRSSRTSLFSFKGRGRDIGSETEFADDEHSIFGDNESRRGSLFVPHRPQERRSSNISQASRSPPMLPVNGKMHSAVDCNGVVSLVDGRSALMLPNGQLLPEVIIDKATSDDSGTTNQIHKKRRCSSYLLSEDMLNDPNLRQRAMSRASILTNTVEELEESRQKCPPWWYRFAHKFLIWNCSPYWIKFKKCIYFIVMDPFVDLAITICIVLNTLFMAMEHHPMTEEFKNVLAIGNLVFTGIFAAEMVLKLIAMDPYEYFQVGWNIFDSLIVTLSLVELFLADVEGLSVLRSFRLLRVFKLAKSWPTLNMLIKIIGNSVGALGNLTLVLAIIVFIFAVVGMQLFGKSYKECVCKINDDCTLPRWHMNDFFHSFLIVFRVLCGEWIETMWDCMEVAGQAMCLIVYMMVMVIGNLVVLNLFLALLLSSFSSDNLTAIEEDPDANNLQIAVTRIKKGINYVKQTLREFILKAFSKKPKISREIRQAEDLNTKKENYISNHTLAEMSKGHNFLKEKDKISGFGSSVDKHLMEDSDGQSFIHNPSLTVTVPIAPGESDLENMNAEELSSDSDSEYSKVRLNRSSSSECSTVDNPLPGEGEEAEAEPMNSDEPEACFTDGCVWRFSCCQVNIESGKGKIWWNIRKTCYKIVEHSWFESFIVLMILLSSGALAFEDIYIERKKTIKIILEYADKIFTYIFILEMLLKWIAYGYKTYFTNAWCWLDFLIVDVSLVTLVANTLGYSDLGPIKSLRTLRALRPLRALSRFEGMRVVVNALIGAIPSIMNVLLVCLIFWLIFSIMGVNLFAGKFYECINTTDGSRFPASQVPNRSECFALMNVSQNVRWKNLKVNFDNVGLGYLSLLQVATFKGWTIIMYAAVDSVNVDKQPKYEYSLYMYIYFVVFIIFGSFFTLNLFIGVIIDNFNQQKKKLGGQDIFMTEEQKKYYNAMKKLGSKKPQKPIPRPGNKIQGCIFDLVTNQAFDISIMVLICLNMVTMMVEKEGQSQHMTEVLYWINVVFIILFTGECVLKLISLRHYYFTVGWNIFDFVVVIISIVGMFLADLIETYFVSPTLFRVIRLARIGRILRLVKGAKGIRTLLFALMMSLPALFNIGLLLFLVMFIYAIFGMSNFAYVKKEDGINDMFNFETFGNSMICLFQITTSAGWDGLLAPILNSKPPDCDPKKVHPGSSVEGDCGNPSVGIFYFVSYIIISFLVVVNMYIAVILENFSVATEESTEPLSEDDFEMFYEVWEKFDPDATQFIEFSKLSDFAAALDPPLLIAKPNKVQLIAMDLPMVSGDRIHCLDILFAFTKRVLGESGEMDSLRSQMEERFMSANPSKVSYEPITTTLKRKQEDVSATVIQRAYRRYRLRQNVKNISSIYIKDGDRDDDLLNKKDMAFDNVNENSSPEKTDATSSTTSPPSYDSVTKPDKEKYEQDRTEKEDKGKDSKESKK
UniProt Q14524, whole entry: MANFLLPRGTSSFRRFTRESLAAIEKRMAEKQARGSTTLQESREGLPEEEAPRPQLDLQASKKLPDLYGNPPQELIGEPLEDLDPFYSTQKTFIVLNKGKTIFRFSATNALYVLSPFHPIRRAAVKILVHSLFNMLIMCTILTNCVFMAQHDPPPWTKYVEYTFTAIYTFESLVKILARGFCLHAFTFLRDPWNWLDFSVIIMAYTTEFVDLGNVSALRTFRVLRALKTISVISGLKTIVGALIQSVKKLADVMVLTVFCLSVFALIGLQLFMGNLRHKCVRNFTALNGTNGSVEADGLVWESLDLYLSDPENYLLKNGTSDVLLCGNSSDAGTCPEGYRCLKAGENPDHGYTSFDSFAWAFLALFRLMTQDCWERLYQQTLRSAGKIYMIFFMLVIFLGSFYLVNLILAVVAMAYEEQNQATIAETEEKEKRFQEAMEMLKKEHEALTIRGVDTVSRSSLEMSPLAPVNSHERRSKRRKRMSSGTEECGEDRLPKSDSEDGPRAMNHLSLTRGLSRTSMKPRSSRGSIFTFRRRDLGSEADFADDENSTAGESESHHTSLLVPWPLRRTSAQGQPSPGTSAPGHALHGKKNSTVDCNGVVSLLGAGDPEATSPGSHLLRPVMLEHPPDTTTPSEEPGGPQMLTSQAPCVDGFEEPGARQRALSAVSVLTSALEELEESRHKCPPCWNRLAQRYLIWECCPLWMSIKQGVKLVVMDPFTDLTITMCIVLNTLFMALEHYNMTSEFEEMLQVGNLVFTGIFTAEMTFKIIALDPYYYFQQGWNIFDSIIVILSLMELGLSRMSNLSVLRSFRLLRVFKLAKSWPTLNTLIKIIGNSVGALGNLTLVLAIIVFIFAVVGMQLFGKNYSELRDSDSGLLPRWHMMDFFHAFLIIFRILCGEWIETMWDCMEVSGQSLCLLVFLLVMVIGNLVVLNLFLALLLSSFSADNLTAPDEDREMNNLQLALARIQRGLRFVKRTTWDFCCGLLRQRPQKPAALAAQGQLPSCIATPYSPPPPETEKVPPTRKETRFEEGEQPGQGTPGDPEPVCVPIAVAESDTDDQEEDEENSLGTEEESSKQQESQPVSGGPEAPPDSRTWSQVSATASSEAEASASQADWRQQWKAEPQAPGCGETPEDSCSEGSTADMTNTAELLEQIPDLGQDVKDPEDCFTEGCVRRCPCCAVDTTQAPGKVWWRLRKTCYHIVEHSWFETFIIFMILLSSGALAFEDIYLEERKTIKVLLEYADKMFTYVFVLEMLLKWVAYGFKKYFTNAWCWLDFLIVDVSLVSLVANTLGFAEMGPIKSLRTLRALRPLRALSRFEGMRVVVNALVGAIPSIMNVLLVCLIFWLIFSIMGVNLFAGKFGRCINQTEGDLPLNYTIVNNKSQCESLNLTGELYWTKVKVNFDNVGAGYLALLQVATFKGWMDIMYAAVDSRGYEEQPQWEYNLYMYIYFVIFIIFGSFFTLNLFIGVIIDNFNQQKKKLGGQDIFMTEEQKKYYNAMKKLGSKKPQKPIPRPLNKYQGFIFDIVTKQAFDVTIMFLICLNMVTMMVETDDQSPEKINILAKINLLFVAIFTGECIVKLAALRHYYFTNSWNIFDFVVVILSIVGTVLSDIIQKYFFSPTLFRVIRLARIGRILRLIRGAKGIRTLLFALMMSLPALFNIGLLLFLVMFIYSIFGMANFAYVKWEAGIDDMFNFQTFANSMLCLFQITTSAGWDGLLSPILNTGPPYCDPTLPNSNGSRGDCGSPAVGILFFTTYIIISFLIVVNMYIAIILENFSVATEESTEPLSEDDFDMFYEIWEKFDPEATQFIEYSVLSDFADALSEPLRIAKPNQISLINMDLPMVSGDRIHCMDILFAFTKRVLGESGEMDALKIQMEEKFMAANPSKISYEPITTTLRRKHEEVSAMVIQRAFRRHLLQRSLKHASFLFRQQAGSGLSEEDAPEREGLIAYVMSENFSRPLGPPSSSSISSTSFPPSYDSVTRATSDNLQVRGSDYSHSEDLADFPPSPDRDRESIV

Columns and labels:
Assay type in all cases: cell-based
hNaV1.3 [1] = molecular target: T1, hNaV1.3 (Homo sapiens, UniProt Q9NY46); assay: Automated whole-cell patch clamp (QPatch 16X), hNaV1.3; settings: HEK293 hNaV1.3/β1; holding −80 mV, 20 ms step to 0 mV from −120 mV (200 ms); 2 min incubation; mean ± SEM (n = 4–12)
Procedure: (§1) Cell culture reagents were from Life Technologies Corporation, CA, United States, unless otherwise stated. The human neuroblastoma cell line SHSY5Y was cultured in Roswell Park Memorial Institute (RPMI) medium supplemented with 15% fetal bovine serum (FBS) and 2 mM L-glutamine. Human embryonic kidney 293 (HEK293) cells stably expressing recombinant hNaV1.1–1.7 and the β1 auxiliary subunit (Scottish Biomedical Drug Discovery, Glasgow, United Kingdom) was cultured in Minimal Essential medium (MEM) (Sigma-Aldrich, MO, United States) supplemented with 10% v/v FBS-New Zealand origin (Assay Matrix), 2 mM L-glutamine and selection antibiotics as per manufacturer’s recommendation. Chinese hamster ovary (CHO) cells stably expressing hNaV1.8/β3 (ChanTest, Cleveland, United States) were cultured in MEM containing 10% v/v FBS and selection antibiotics as per manufacturer’s recommendation. […]
(§2) The HEK293 cells stably expressing hNaV1.1–1.7/β1 and CHO cells stably expressing hNaV1.8/β3 were prepared following manufacturer’s guidelines. […] The mean seal resistance was 658 MΩ (95% confidence interval: 557–759 MΩ) while series resistance (Rs) was maintained below 10 MΩ with a mean for the last measured series resistance of 7 MΩ (95% confidence interval: 6.7–7.5 MΩ) with no compensation except for current-voltage experiments on hNaV1.2 and hNaV1.7, where fast Rs was compensated by 70%. […]

hNaV1.3 [2] = molecular target: T1, hNaV1.3; assay: On-rate and off-rate, hNaV1.3
Procedure: (§3) The HEK293 cells stably expressing hNaV1.1–1.7/β1 and CHO cells stably expressing hNaV1.8/β3 were prepared following manufacturer’s guidelines. After 48 h of incubation to achieve ∼80% confluency, cells were detached using Detachin (Genlantis) and resuspended to 5 × 10^6 cells/mL in serum free media (CHO-cell SFM (Life Technologies), 25 mM HEPES and 100 U/mL penicillin/streptomycin). As hNaV1.8 expression in CHO cells is tetracycline inducible, the cells were further cultured for 24 h at 27°C in the presence of tetracycline (1 μg/ml). The electrophysiology experiments were conducted using the automated whole-cell patch clamp technology (QPatch 16X; Sophion Bioscience A/S, Ballerup, Denmark) as previously described ([Cardoso et al., 2015]; [Cardoso et al., 2017]) using QPlates with single patch hole/well for hNaV1.1–1.7 and 10 patch hole/well for hNaV1.8. The extracellular solution comprised (in mM) 1 CaCl2, 1 MgCl2, 5 HEPES, 3 KCl, 140 NaCl and 20 TEA-Cl with pH adjusted to 7.3 with NaOH. […] The mean seal resistance was 658 MΩ (95% confidence interval: 557–759 MΩ) while series resistance (Rs) was maintained below 10 MΩ with a mean for the last measured series resistance of 7 MΩ (95% confidence interval: 6.7–7.5 MΩ) with no compensation except for current-voltage experiments on hNaV1.2 and hNaV1.7, where fast Rs was compensated by 70%.
(§4) The voltage protocols to determine voltage-dependence of activation and fast inactivation were combined, with cells held at −90 mV for 150 ms followed by step pulses from −110 mV to +75 mV in 5 mV increments to elicit the Na^+ currents and determine voltage-dependence of activation. […] For on-rate experiments, cells were maintained at a holding potential −80 mV and Na^+ currents elicited by 20 ms voltage steps to 0 mV from a −120 mV conditioning pulse applied for 200 ms at 10 s interval for 300 s after addition of rSsp1a at 1x, 3x and 10x its IC50 at each hNaV subtype analysed. […] The off-rate (koff) and dissociation constant (Kd) values at three hNaV subtypes were calculated using koff = 1/τoff (s^−1) and Kd = koff/kon (nM). […]

hNaV1.7 [3] = molecular target: T2, hNaV1.7 (Homo sapiens, UniProt Q15858); assay: On-rate and off-rate, hNaV1.7
Procedure: as §3, §4

hNaV1.5 = hNaV1.5 (Homo sapiens, UniProt Q14524); assay: Automated whole-cell patch clamp (QPatch 16X), hNaV1.5
Procedure: as §1, §2

hNaV1.2 [4] = molecular target: T3, hNaV1.2 (Homo sapiens, UniProt Q99250); assay: Voltage-dependence of activation and steady-state fast inactivation, hNaV1.2; settings: rSsp1a 250 nM, peak current reduced, mean ± SEM, n = 3–4
Procedure: as §3, with “μg/ml).” for “μg/ml). The electrophysiology experiments were conducted using the automated whole-cell patch clamp technology (QPatch 16X; Sophion Bioscience A/S, Ballerup, Denmark) as previously described ([Cardoso et al., 2015]; [Cardoso et al., 2017]) using QPlates with single patch hole/well for hNaV1.1–1.7 and 10 patch hole/well for hNaV1.8. The extracellular solution comprised (in mM) 1 CaCl2, 1 MgCl2, 5 HEPES, 3 KCl, 140 NaCl and 20 TEA-Cl with pH adjusted to 7.3 with NaOH.”
(§5) The voltage protocols to determine voltage-dependence of activation and fast inactivation were combined, with cells held at −90 mV for 150 ms followed by step pulses from −110 mV to +75 mV in 5 mV increments to elicit the Na^+ currents and determine voltage-dependence of activation. […] The calculated kobs were plotted against their corresponding concentration to obtain a linear curve-fit where the slope of the curve represented the actual kon ([Dowling and Charlton, 2006]; [Pierre, 2011]). […]

hNaV1.7 [5] = molecular target: T2, hNaV1.7; assay: Voltage-dependent inhibition of hNaV1.7 at 0 and 50 mV test pulse; settings: 255 nM (IC70) rSsp1a, n = 4, read-out: inhibition of hNaV1.7 channels at depolarisation to +50 mV
Procedure: as §3, with “70%. […]” for “70%.”

hNaV1.1 = hNaV1.1 (Homo sapiens, UniProt P35498); assay: Automated whole-cell patch clamp (QPatch 16X), hNaV1.1; settings: HEK293 hNaV1.1/β1; holding −80 mV, 20 ms step to 0 mV from −120 mV (200 ms); 2 min incubation; mean ± SEM (n = 4–12)
Procedure: as §1, §2

hNaV1.8 = hNaV1.8 (Homo sapiens, UniProt Q9Y5Y9); assay: Automated whole-cell patch clamp (QPatch 16X), hNaV1.8 in CHO cells
Procedure: as §1, §2

hNaV1.7 [6] = molecular target: T2, hNaV1.7; assay: Effect of strong depolarizations on rSsp1a-bound hNaV1.7; settings: +160 mV; 2 μM rSsp1a; modified solutions; n = 5
hNaV1.2 [7] = molecular target: T3, hNaV1.2; assay: On-rate and off-rate, hNaV1.2
Procedure: as §3, §4

hNaV1.7 [8] = molecular target: T2, hNaV1.7; assay: Voltage-dependence of activation and steady-state fast inactivation, hNaV1.7; settings: rSsp1a 130 nM, peak current reduced, mean ± SEM, n = 3–4
Procedure: as §3, with “μg/ml).” for “μg/ml). The electrophysiology experiments were conducted using the automated whole-cell patch clamp technology (QPatch 16X; Sophion Bioscience A/S, Ballerup, Denmark) as previously described ([Cardoso et al., 2015]; [Cardoso et al., 2017]) using QPlates with single patch hole/well for hNaV1.1–1.7 and 10 patch hole/well for hNaV1.8. The extracellular solution comprised (in mM) 1 CaCl2, 1 MgCl2, 5 HEPES, 3 KCl, 140 NaCl and 20 TEA-Cl with pH adjusted to 7.3 with NaOH.”
as §5

hNaV1.7 [9] = molecular target: T2, hNaV1.7; assay: Automated whole-cell patch clamp (QPatch 16X), hNaV1.7; settings: HEK293 hNaV1.7/β1; holding −80 mV, 20 ms step to 0 mV from −120 mV (200 ms); 2 min incubation; mean ± SEM (n = 4–12)
Procedure: as §1, §2

hNaV1.3 [10] = molecular target: T1, hNaV1.3; assay: Voltage-dependence of activation and steady-state fast inactivation, hNaV1.3; settings: rSsp1a 500 nM (panel hNaV1.3; legend prints hNaV1.4); peak current reduced; mean ± SEM, n = 3–4
Procedure: as §3, with “μg/ml).” for “μg/ml). The electrophysiology experiments were conducted using the automated whole-cell patch clamp technology (QPatch 16X; Sophion Bioscience A/S, Ballerup, Denmark) as previously described ([Cardoso et al., 2015]; [Cardoso et al., 2017]) using QPlates with single patch hole/well for hNaV1.1–1.7 and 10 patch hole/well for hNaV1.8. The extracellular solution comprised (in mM) 1 CaCl2, 1 MgCl2, 5 HEPES, 3 KCl, 140 NaCl and 20 TEA-Cl with pH adjusted to 7.3 with NaOH.”
as §5

hNaV1.4 = hNaV1.4 (Homo sapiens, UniProt P35499); assay: Automated whole-cell patch clamp (QPatch 16X), hNaV1.4
Procedure: as §1, §2

hNaV1.2 [11] = molecular target: T3, hNaV1.2; assay: Automated whole-cell patch clamp (QPatch 16X), hNaV1.2; settings: HEK293 hNaV1.2/β1; holding −80 mV, 20 ms step to 0 mV from −120 mV (200 ms); 2 min incubation; mean ± SEM (n = 4–12)
Procedure: as §1, §2

[12] = slope of kobs vs concentration (three concentrations)
[13] = whole-cell automated patch clamp

CC(C)C[C@H](NC(=O)[C@H](CC(=O)O)NC(=O)[C@H](Cc1ccc(O)cc1)NC(=O)[C@H](CCCNC(=N)N)NC(=O)[C@@H]1CSSC[C@@H]2NC(=O)[C@H](CCCCN)NC(=O)[C@H](CC(N)=O)NC(=O)[C@H](CC(N)=O)NC(=O)[C@H](CC(N)=O)NC(=O)[C@@H]3CCCN3C(=O)[C@H](CC(=O)O)NC(=O)[C@@H]3CSSC[C@H](NC(=O)[C@H](C(C)C)NC(=O)[C@H](Cc4ccc(O)cc4)NC(=O)CNC(=O)[C@H](CCC(=O)O)NC(=O)[C@H](CSSC[C@H](NC(=O)[C@H](CC(=O)O)NC(=O)CN)C(=O)N[C@@H](CC(C)C)C(=O)NCC(=O)N[C@@H](Cc4c[nH]c5ccccc45)C(=O)N[C@@H](Cc4ccccc4)C(=O)N[C@@H](CO)C(=O)NCC(=O)N3)NC2=O)C(=O)N[C@@H](Cc2c[nH]cn2)C(=O)N[C@@H](Cc2c[nH]c3ccccc23)C(=O)N[C@@H](CCCCN)C(=O)N[C@@H](Cc2ccc(O)cc2)C(=O)N2CCC[C@H]2C(=O)N[C@@H](Cc2c[nH]c3ccccc23)C(=O)N1)C(=O)O [rSsp1a]
IC50 (hNaV1.3 [1]): 547 ± 70 nM | channels recovering from block after washout (hNaV1.3 [2]; 500 nM, 30-min washout, n = 6): ~50% | koff (hNaV1.3 [2]; koff = 1/τoff, 500 nM, 5 min incubation, 30 min washout, n = 6): 0.000413 s⁻¹ | kon (hNaV1.3 [2]; [12]): 11200 M⁻¹ s⁻¹ | channels recovering from block after washout (hNaV1.7 [3]; 130 nM, 30-min washout, n = 4): ~40% | koff (hNaV1.7 [3]; koff = 1/τoff, 130 nM, 5 min incubation, 30 min washout, n = 4): 0.000393 s⁻¹ | kon (hNaV1.7 [3]; [12]): 17500 M⁻¹ s⁻¹ | block of hNaV1.5 current (hNaV1.5; 3 μM rSsp1a, HEK293): ~60% | IC50 (hNaV1.5; HEK293 hNaV1.5/β1, holding −80 mV, 20 ms step to 0 mV from −120 mV (200 ms), 2 min incubation, n = 4–12): > 3000 nM | current-voltage relationship, effect of ~IC50 rSsp1a (hNaV1.2 [4]): without significantly affecting the activation threshold, activation voltage and reversal potential | inhibition at 0.255 µM (hNaV1.7 [5]): ~40% | IC50 (hNaV1.1): 674 ± 104 nM | IC50 (hNaV1.8; CHO hNaV1.8/β3, holding −90 mV, 50 ms step to +10 mV from −90 mV (150 ms), n = 4–12): > 9000 nM | activity at hNaV1.8 (discussion) (hNaV1.8; [13]): inactive | outward current of rSsp1a-bound hNaV1.7 relative to before rSsp1a (hNaV1.7 [6]): ~21% | channels recovering from block after washout (hNaV1.2 [7]; 250 nM, 30-min washout, n = 6): ~25% | koff (hNaV1.2 [7]; koff = 1/τoff, 250 nM, 5 min incubation, 30 min washout, n = 6): 0.000298 s⁻¹ | kon (hNaV1.2 [7]; [12]): 15300 M⁻¹ s⁻¹ | current-voltage relationship, effect of ~IC50 rSsp1a (hNaV1.7 [8]): without significantly affecting the activation threshold, activation voltage and reversal potential | IC50 (hNaV1.7 [9]): 134 ± 9 nM | current-voltage relationship, effect of ~IC50 rSsp1a (hNaV1.3 [10]): without significantly affecting the activation threshold, activation voltage and reversal potential | IC50 (hNaV1.4; HEK293 hNaV1.4/β1, holding −80 mV, 20 ms step to 0 mV from −120 mV (200 ms), 2 min incubation, n = 4–12): > 3000 nM | activity at hNaV1.4 (discussion) (hNaV1.4; [13]): inactive | IC50 (hNaV1.2 [11]): 239 ± 26 nM
